Source: patent publication US10539557B2
This is a selection: effects in other tests are not listed, and their absence says nothing.

Test system: Antibody to AH-7921 and nor-AH-7921 (raised against Immunogen 2 of Example 8)
Assay: Competitive immunoassay (ELISA) with Tracer-1 (hapten-A conjugated to HRP), absorbance at 450 nm
Conditions: for IC50 = standard concentration which produces 50% inhibition of maximal signal: polyclonal antibody raised against Immunogen 2, Tracer-1; for % CR (cross-reactivity): relative to AH-7921 = 100%, calculated from IC50
Protocol: Pre-immunization blood samples are collected from young adult, female, Texel sheep. Texel sheep is a breed of domestic sheep originally from the island of Texel in the Netherlands. In order to generate polyclonal antisera, 2 mg of Immunogen-2 is prepared in PBS, mixed at a ratio of 50% immunogen in PBS to 50% Freund's Complete adjuvant (Sigma, Product Number F5881) and emulsified by repeatedly passing the mixture through a tip on the end of a 1 mL syringe, until it reaches the required semi-solid consistency. 1 mL of the emulsified mixture is injected intramuscularly into each host animal (sheep) as the primary immunisation dose. Further injections (boosts) are prepared (1 mg of immunogen is prepared in PBS and mixed at a ratio of 50% Immunogen in PBS/50% Freunds Incomplete adjuvant, Sigma, Product Number—F5506). Boost injections are delivered intramuscularly at monthly intervals, 1 mL per animal. Serum is sampled monthly by collection of whole blood from the jugular vein for evaluation of the antibody titre. The degree of antibody purification required depends on the intended application. (For many purposes, there is no requirement for purification of the serum, however, in other cases, such as where the antibody is to be immobilised on a solid support, purification steps (such as caprylic acid/ammonium sulphate precipitation) can be taken to remove undesired material and eliminate non-specific binding.)
A detecting agent (hapten-A conjugated to HRP (Tracer-1)) is added to a sample containing the target analyte and the raised antibodies, promoting competition between the detecting agent and analyte for binding to the antibodies. The antibodies were contacted with a polystyrene solid support (e.g. dilution of antibodies in coating buffer and incubation at 37° C. for 2 hours to allow antibody binding to surface). The antibodies can be polyclonal or monoclonal using standard techniques, but the current invention makes use of polyclonal antibodies. The signal emitted in the immunoassay is proportionate to the amount of detecting agent bound to the antibodies which in turn is inversely proportionate to the analyte concentration. The signal can be detected or quantified by comparison with a calibrator which comprises known levels of target analyte.
Antibodies were diluted in coating buffer and incubation at 37° C. for 2 hours to allow antibody binding to surface. The plate was washed. Detecting agent (hapten-A conjugated to HRP (Tracer-1)) was added to a sample containing the target analyte. The plate was washed. 125 μl of one-shot substrate (Thermo Fisher Product No. TMB005/001/UL—containing luminol) was added to each well and tapped gently. The plate was incubated at room temperature for 20 minutes in the dark. The reaction was stopped by addition of 125 μl of 0.2M Sulphuric acid to each well. The absorbance was measured at 450 nm using an ELISA plate reader (e.g. Biotek Elx800)
The cross-reactivity (CR) was calculated using the equation below. All calculations were based upon binding and displacement at the 50% of maximum OD (optical density) binding point. The maximum OD is the signal generated using tracer alone and 50% displacement (inhibition) corresponds to the IC50.
[formula] The Table below discloses the Antibody binding characteristics of Antibody to AH-7921 and nor-AH-7921 (raised against Immunogen 2 of Example 8); and Tracer-1 of Example 9.

CNC1(CNC(=O)c2ccc(Cl)c(Cl)c2)CCCCC1
% B/B0 (0.156 ng/ml standard (L2)): 36%
% B/B0 (0.313 ng/ml standard (L3)): 24%
% B/B0 (0.625 ng/ml standard (L4)): 15%
% B/B0 (1.250 ng/ml standard (L5)): 10%
% B/B0 (2.500 ng/ml standard (L6)): 6%
% B/B0 (5.000 ng/ml standard (L7)): 4%
% B/B0 (10.000 ng/ml standard (L8)): 3%
IC50 = standard concentration which produces 50% inhibition of maximal signal: 0.086 ng/mL
% CR (cross-reactivity): 94.186%

CN(C)C1(CNC(=O)c2ccc(Cl)c(Cl)c2)CCCCC1
% B/B0 (0.156 ng/ml standard (L2)): 31%
% B/B0 (0.313 ng/ml standard (L3)): 18%
% B/B0 (0.625 ng/ml standard (L4)): 10%
% B/B0 (1.250 ng/ml standard (L5)): 5%
% B/B0 (2.500 ng/ml standard (L6)): 3%
% B/B0 (5.000 ng/ml standard (L7)): 2%
% B/B0 (10.000 ng/ml standard (L8)): 1%
IC50 = standard concentration which produces 50% inhibition of maximal signal: 0.081 ng/mL
% CR (cross-reactivity): 100.0%
